The results in this text go back to patent US7647217B2, “Structure of the farnesoid X receptor ligand binding domain and methods of use therefor” (The Salk Institute for Biological Studies, priority 2002, dated 2010).

Protein sequences, listed by entry. Tags and fused reporters are not part of them.
UniProt Q60641, whole entry: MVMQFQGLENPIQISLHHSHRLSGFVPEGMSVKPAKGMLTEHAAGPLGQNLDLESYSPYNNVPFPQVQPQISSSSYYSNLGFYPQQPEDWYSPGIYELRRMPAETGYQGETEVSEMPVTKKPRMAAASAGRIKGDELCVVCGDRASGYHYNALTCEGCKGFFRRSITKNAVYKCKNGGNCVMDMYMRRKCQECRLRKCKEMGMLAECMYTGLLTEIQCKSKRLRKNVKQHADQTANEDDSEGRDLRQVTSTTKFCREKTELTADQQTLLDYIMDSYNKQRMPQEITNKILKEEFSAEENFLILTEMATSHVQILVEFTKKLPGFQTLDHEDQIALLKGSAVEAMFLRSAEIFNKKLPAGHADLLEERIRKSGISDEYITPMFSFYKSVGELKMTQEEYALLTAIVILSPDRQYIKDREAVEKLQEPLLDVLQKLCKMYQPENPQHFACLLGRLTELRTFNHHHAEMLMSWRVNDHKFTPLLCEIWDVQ
UniProt P19793, whole entry partner: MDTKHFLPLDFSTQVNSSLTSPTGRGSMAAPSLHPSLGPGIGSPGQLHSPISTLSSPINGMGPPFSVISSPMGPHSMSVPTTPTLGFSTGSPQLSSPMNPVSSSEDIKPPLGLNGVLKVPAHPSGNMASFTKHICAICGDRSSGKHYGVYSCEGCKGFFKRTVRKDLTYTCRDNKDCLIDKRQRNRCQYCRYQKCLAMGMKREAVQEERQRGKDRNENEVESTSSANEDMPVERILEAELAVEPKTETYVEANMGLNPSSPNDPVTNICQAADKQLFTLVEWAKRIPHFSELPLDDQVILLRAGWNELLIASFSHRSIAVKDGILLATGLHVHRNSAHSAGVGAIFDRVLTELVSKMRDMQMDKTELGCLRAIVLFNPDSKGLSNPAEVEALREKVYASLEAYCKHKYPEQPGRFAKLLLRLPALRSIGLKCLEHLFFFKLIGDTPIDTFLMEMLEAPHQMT

The target in this assay is FXR (Mus musculus, UniProt Q60641). The assay can be described thus: Cell-based screen: full-length FXR expression vector co-transfected with hormone response element luciferase reporter. As to conditions: versus prototypical lead structure, after optimization of regions I and II. Background: Reporter assays use an easily measured gene product as a stand-in for the process of interest.

Turning to `COC(=O)/C=C/c1cccc(N(Cc2ccc3c(c2OC)OC(C)(C)C=C3)C(=O)C2CCCCC2)c1`, the “enhancement in the potency” value is “more than 10 fold”.
